The assay addresses T1, C5a anaphylatoxin chemotactic receptor 1 (Homo sapiens, UniProt P21730).
T1 sequence (P21730 whole entry): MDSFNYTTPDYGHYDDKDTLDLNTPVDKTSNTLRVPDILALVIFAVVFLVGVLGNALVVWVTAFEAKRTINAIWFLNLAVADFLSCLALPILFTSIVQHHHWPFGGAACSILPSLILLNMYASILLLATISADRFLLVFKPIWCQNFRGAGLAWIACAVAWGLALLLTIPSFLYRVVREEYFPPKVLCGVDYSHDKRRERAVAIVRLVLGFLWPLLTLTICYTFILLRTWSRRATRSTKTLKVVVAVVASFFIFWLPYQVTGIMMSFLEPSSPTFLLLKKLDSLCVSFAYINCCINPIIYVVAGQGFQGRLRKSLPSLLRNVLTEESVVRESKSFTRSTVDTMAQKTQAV
The assay is described as follows: Inhibitory activity against [125I]-rC5a binding to C5a anaphylatoxin chemotactic receptor in human polymorphonuclear leukocyte (PMNL) membranes. The procedure, abridged: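 Competition binding on human PMNL membrane fragments, peptides displacing ¹²⁵I-labelled recombinant C5a. Inhibition binding data converted to apparent dissociation constant (Ki) by the Cheng–Prusoff method.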

`CC[C@H](C)[C@H](NC(=O)[C@H](CC(N)=O)NC(=O)[C@H](C)N)C(=O)N[C@@H](CO)C(=O)N[C@@H](Cc1ccccc1)C(=O)N[C@@H](CCCCN)C(=O)N[C@@H](CC(=O)O)C(=O)N[C@@H](CCSC)C(=O)N[C@@H](CCC(N)=O)C(=O)N[C@@H](CC(C)C)C(=O)NCC(=O)N[C@@H](CCCN=C(N)N)C(=O)O` came in with an inhibition constant (Ki) of 0.22 µM.

Regarding `CC[C@H](C)[C@H](N)C(=O)N[C@@H](CO)C(=O)N[C@@H](Cc1ccccc1)C(=O)N[C@@H](CCCCN)C(=O)N[C@@H](CC(=O)O)C(=O)N[C@@H](CCSC)C(=O)N[C@@H](CCC(N)=O)C(=O)N[C@@H](CC(C)C)C(=O)NCC(=O)N[C@@H](CCCN=C(N)N)C(=O)O`, the affinity, expressed as Ki, was 0.39 µM.
